Experimental data as given in US20250388576A1, “PYRIDONOPYRIMIDINE DERIVATIVE AS RSK INHIBITOR AND USE THEREOF” (EAST CHINA NORMAL UNIVERSITY, priority 2022, published 2025).

By UniProt entry, the sequences of proteins in these tests, tags left out.
UniProt Q9UK32, whole entry: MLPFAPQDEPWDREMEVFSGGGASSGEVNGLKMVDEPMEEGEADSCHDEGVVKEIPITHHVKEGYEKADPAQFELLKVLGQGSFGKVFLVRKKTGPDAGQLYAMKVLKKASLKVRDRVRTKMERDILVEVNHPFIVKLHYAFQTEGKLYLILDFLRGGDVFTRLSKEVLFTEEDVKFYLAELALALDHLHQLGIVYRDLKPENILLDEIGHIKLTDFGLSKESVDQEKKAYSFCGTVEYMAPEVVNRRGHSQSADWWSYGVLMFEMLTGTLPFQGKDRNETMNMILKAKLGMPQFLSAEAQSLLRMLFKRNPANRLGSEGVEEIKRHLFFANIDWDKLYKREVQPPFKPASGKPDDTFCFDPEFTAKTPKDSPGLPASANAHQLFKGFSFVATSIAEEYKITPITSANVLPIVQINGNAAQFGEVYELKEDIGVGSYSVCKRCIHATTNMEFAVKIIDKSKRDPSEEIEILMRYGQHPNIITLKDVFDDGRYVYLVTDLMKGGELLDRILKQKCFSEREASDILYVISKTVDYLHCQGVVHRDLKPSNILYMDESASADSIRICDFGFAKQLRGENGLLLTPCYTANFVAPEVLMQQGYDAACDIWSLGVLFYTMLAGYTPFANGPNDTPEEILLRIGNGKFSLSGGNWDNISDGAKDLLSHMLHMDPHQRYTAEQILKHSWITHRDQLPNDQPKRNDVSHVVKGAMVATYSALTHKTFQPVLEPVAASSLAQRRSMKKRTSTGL

Target: RSK4 kinase (Homo sapiens (Human), UniProt Q9UK32)
Test: In vitro enzyme activity assay (Kinase-Glo), RSK4
Type: biochemical
Details: 10 μM ATP, 30° C., 40 minutes

IC50 | Structure (SMILES)
11 ± 1 nM | Cc1cc(=O)n(C2CCC(F)(F)C2)c2nc(Nc3ccc4[nH]ncc4c3)ncc12 (single isomer, unassigned) [Compound 005-1]
6 ± 1 nM | Cc1cc(=O)n(C2CCC(F)(F)C2)c2nc(Nc3ccc4[nH]ncc4c3)ncc12 (single isomer, unassigned) [Compound 005-2]
